Giardia killer = Giardia lamblia killing. Giardia lamblia trophozoite viability. activity change, % at 7.66 µM, hits read low. 340,000 compounds, 0.15% hits. AID 540267; in the data active means activity change below about -80%; inconclusive means between about -30% and that limit;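 further: parasites exposed to compound for two days anaerobically before the ATP read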
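Viability, read as ATP luminescence: trophozoites at 100 cells/well, compound added, 48 hrs anaerobic at 37 deg C, then 15-30 min room-temperature development before reading.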
PTHR1 agonist = activates the human parathyroid hormone receptor PTHR1. Q03431. HEK293 GP2 PTHR1 cells, GloSensor cAMP luminescence, 1 h. Potency, µM (titrated, usually from 115 µM), most hits filed as activators. 410,000 compounds, 0.075% hits. AID 743266; further: nearly all actives have a fitted effect of over 55% in size
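HEK-293-derived GP2 cells expressing PTHR1 and a GloSensor cAMP reporter, 3,000/well, plated overnight, given luciferin plus IBMX (each 0.5 mM as added) for 1 h at 37 °C, then compound for 1 h at 37 °C. Luminescence was read after 15 min at room temperature.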
PINK1 expr mod = changes PINK1 expression | 410,000 compounds, 0.2% hits | AID 624263 | Potency, µM (titrated, usually from 76.6 µM), hits mostly activators | PINK1 immunofluorescence, high-content cytometry, 24 h; active means well fitted activation curve with a large enough effect; inconclusive means small, poorly fitted or top-dose-only effect; cell line not stated here; further: nearly all actives have a fitted effect of over 65% in size
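PINK1 protein level read as immunofluorescence by microplate cytometer in a fixed, stained stable cell line after 24 h exposure to five compound concentrations, with CCCP as control.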
12-LOX inh = blocks human arachidonate 12S-lipoxygenase; P18054; purified 12hLO, xylenol orange hydroperoxide absorbance; Potency, µM (series often up to 108 µM), actives largely listed as inhibitors; 580,000 compounds, 1.1% hits; AID 1671190
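Hydroperoxide product was detected by ferrous iron/xylenol orange as the 573 to 405 nm absorbance ratio. Arachidonic acid at 40 uM (final) was turned over for 30 min at room temperature by 150 nM human 12hLO, pH 7.0 Hepes buffer, after 15 min compound preincubation.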
ERG Ets-DNA blk = ERG Ets/DNA interaction inhibition; P11308; fluorescence polarization, His-ERG Ets domain / labelled DNA; Potency, µM (doses to about 76.9 µM), hits mostly inhibitors; 370,000 compounds, 0.028% hits; AID 624246; active means well fitted inhibition curve with a large enough effect in the polarisation, with a control signal flat; inconclusive means small, poorly fitted or top-dose-only effect, or effect the other way, or a change in a side signal; inactive means no such curve, though single readings can be large or run the other way; the % refers to the polarisation;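 further: polarization taken with two DNA probes labelled with fluorescein and Texas red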
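His-tagged ERG Ets domain (1 uM in the protein solution; 300mM KCl, 50mM Tris-HCl, 1mM EDTA, 1mM DTT, pH 7.5) received compound, then a probe mix of 5 nM fluorescein-DNA and 100nM Texas-615-DNA. Fluorescence polarization was read for both dyes.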
miR-21 FLuc = miR-21 reporter, rising signal | 340,000 tested, under 10 active | AID 2288 | HeLa miR-21 FLuc reporter, luciferase, 48 h | Potency, µM (titrated, usually from 38.3 µM); active = well fitted rising curve with a large enough effect; inconclusive = small, poorly fitted or top-dose-only effect; inactive = no such curve, though single readings can be large or run the other way;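 further: miR-21 action dims this reporter so a rising signal means less miR-21 action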
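HeLa miR-21-FLuc reporter line, endogenous miR-21; 2000 cells/well in DMEM/10% FBS; compound titration up to ~40uM final, 48 h, 37 degree Celsius; luciferase detection reagent, 15 min lysis, CCD luminescence.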
Each line names hits and unclear results; the compound was inactive in the other large screens. An excerpt weighted towards active compounds, which were near 1.3% of everything screened. Unless noted, the call rests on the fitted dose curve; in most records, active means well fitted curve in the direction sought with a large enough effect; inconclusive means small, poorly fitted or top-dose-only effect, or another doubt; inactive means no such curve, though single readings can be large; an effect the other way counts as inactive or inconclusive.

Cc1ccc(S(=O)(=O)N2[C@@H](c3ccc(Br)cc3)C(C(=O)O)=CC[C@H]2c2ccc(C(C)C)cc2)cc1	12-LOX inh 35µM (no result: miR-21 FLuc)
Cc1ccc([C@@H]2CC=C(C(=O)O)[C@H](c3ccc(Br)cc3)N2S(=O)(=O)c2ccc(C)cc2)cc1	Giardia killer inconclusive, 12-LOX inh inconclusive (no result: miR-21 FLuc)
Cc1ccc(S(=O)(=O)N2[C@@H](c3ccc(Cl)cc3)C(C(=O)O)=C[C@H]2CC2CCCC2)cc1	Giardia killer inconclusive, 12-LOX inh inconclusive (no result: miR-21 FLuc)
Cc1ccc(S(=O)(=O)N2[C@@H](c3ccc(Cl)c(Cl)c3)C(C(=O)O)=C[C@H]2CC2CCCC2)cc1	Giardia killer inconclusive, 12-LOX inh 28µM (no result: miR-21 FLuc)
Cc1ccc(N(C(=O)C2C3CC4CC(C3)CC2C4)C2C=CS(=O)(=O)C2)cc1 (stereo not given)	none (no result: Giardia killer, PTHR1 agonist, PINK1 expr mod, ERG Ets-DNA blk, miR-21 FLuc)
COCCn1nnnc1C(c1cc2cc(C)cc(C)c2[nH]c1=O)N1CCN(c2ccccc2F)CC1 (stereo not given)	12-LOX inh inconclusive (no result: ERG Ets-DNA blk)
Cc1cccc(NC(=S)N/N=C/c2c[nH]c3ccccc23)c1	12-LOX inh inconclusive
CCSC(=O)NC12CC3CC(CC(C3)C1)C2	none (no result: ERG Ets-DNA blk)
COc1ccc(CCC(=O)NNC(=O)Nc2cc(Cl)ccc2C)cc1	none
C=CCc1ccccc1OCC(O)CN1CCN(c2ccc(C)cc2)CC1 (stereo not given)	PINK1 expr mod inconclusive, 12-LOX inh 0.56µM
Cc1ccc(C(C)C)c(OCC(O)CN2CCOCC2)c1 (stereo not given)	none (no result: ERG Ets-DNA blk)
C=CCc1ccccc1OCC(O)CN1CCN(C(=O)OCC)CC1 (stereo not given)	none
Cc1ccc(C(C)C)c(OCC(O)CN2CCN(CCO)CC2)c1 (stereo not given)	12-LOX inh 10µM
COc1ccccc1CNC(=S)NC1CCCCC1	12-LOX inh inconclusive
CCOc1ccc(OCC)c(Nc2cc(C)nc3nc(C)nn23)c1	12-LOX inh inconclusive
CCOc1ccccc1Nc1cc(C)nc2nc(C)nn12	12-LOX inh 5.6µM
CCCCCCn1c(=O)n2n(c1=O)C[C@]1(OC(=O)Nc3cccs3)CN(S(=O)(=O)c3ccc(C)cc3)C[C@]1(O)C2	PINK1 expr mod inconclusive, 12-LOX inh 35µM (no result: Giardia killer, ERG Ets-DNA blk, miR-21 FLuc)
CCCCn1c(SCC(=O)c2ccc(O)cc2O)nc2cc(S(N)(=O)=O)ccc21	none
O=[N+]([O-])C(=C1Nc2ccccc2N1)/C(Cl)=C(/Cl)Br	12-LOX inh inconclusive
Cc1cc(C)nc(SCC(=O)Nc2ccccc2C(N)=O)n1	12-LOX inh 50µM (no result: Giardia killer, PTHR1 agonist, PINK1 expr mod, ERG Ets-DNA blk, miR-21 FLuc)
COC(=O)c1ccccc1NC(=O)CSc1nc(C)cc(C)n1	none
Cc1ccc2oc(=O)n(CC(=O)OC(C)C)c2c1	none
COc1ccccc1/C=C/CN1CCC(n2nccc2NC(=O)C2CC2)CC1	12-LOX inh 28µM
O=C(Nc1ccnn1C1CCN(Cc2ccc(-c3ccco3)cc2)CC1)C1CC1	12-LOX inh 11µM (no result: Giardia killer, PTHR1 agonist, PINK1 expr mod, ERG Ets-DNA blk, miR-21 FLuc)
COc1ccccc1C(=O)Nc1ccnn1C1CCN(C/C=C/c2ccccc2)CC1	none
O=C(Cc1cccnc1)N1CC(F)(F)C[C@H]1c1nc(C2CC2)no1	none (no result: Giardia killer, PTHR1 agonist, PINK1 expr mod, ERG Ets-DNA blk, miR-21 FLuc)
CN(C)CCN(Cc1ccccc1)c1ccnc(N(C)C)c1C#N	12-LOX inh inconclusive
CN(C)c1nccc(N(Cc2ccccc2)Cc2ccccc2)c1C#N	12-LOX inh 3.2µM
CCOc1ccc2c(c1)cc(C(=O)NCc1ccco1)n2C	12-LOX inh 18µM (no result: Giardia killer, PTHR1 agonist, PINK1 expr mod, ERG Ets-DNA blk, miR-21 FLuc)
CCOc1ccc2c(c1)cc(C(=O)Nc1ccc(OC)cc1)n2C	none (no result: Giardia killer, PTHR1 agonist, PINK1 expr mod, ERG Ets-DNA blk, miR-21 FLuc)
CCC(=O)Nc1ccc(-c2csc(NCCOC)n2)cc1	12-LOX inh 14µM (no result: Giardia killer, PTHR1 agonist, PINK1 expr mod, ERG Ets-DNA blk, miR-21 FLuc)
CC(C)Oc1ccc(F)cc1-c1cc(C(=O)NCc2cc(C(F)(F)F)cc(C(F)(F)F)c2)[nH]n1	PINK1 expr mod 35µM (no result: Giardia killer, ERG Ets-DNA blk, miR-21 FLuc)
CC(C)Oc1ccc(F)cc1-c1cc(C(=O)NCc2ccc(C(F)(F)F)cc2)[nH]n1	none (no result: Giardia killer, ERG Ets-DNA blk, miR-21 FLuc)
c1ccc2ncc(CN3CC[C@H](c4nc5ccccc5[nH]4)C3)cc2c1	none (no result: Giardia killer, PTHR1 agonist, PINK1 expr mod, ERG Ets-DNA blk, miR-21 FLuc)
OCCCn1c(-c2ccc(F)cc2)csc1=Nc1ccc(F)cc1	12-LOX inh inconclusive (no result: Giardia killer)
Cc1ccc(-c2csc(=Nc3ccccc3)n2CCCO)cc1	12-LOX inh 45µM, miR-21 FLuc inconclusive (no result: Giardia killer)

Assay outcomes (PubChem BioAssay)
